Structures are written as SMILES.

In general, IC50 refers to the concentration that inhibits the measured activity by half. A low value points to inhibition by little substance.

The target in the experiment is T1, human MMP-1 (amino acids 100-262) (Homo sapiens, UniProt P03956).
T1 construct: human MMP-1 (amino acids 100-262); made in house
T1 sequence (P03956 100-262): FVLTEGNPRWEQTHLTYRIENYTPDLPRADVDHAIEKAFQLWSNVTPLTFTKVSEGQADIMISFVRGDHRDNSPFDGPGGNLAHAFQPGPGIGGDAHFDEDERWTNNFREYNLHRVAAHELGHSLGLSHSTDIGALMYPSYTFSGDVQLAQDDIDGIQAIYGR
The experiment can be described thus: MMP dose response assay for determining IC50, MMP-1. The format is biochemical. Particulars: MMP-1 (nM). The method, then:
MMP Dose Response Assay for Determining IC50
The following method was used for determining IC50 values of different inhibitor compounds against multiple MMP enzymes. Frozen stocks of recombinantly produced MMPs were prepared in assay buffer (50 mM HEPES pH 7.4, 10 mM CaCl2, 0.05% Brij-35). […] Enzyme concentrations in the assay were determined empirically and set such that proteolytic activity was maintained in a linear range over the time-course of the experiment. […] Each concentration for each test compound was tested in triplicate. MMP enzymes were equilibrated with compounds for 1 hour at room temperature, then a fluorescent-quench substrate (Acetyl-Cys(Eu)-Pro-Leu-Gly-Leu-Lys-(QSY7)-Ala-Arg-amide) was added to a final concentration of 100 nM. […] Data was analyzed by first calculating average background value from wells that contained only substrate, and this value was subtracted from the entire plate. The 100%, or maximum value, was determined by averaging control wells that contained enzyme, substrate and DMSO. For each well, the percent of control was calculated by dividing the well value by the average DMSO value obtained above.

`Cc1ccc(Oc2ccc(N(C[C@@H](O)C(=O)NO)S(C)(=O)=O)cc2)cc1` [Example 7, N-Hydroxy (2R)-2-hydroxy-3-{N-[4-(4-methylphenoxy)phenyl],N-methanesulfonylamino}propionamide] returned an IC50 above 10000 nM.
Consider `Cc1ccc(Oc2ccc(N(C[C@H](O)C(=O)NO)S(C)(=O)=O)cc2)cc1` [Example 8, N-Hydroxy (2S)-2-hydroxy-3-{N-[4-(4-methylphenoxy)phenyl],N-methanesulfonylamino}propionamide], for which the IC50 is above 10000 nM.

Values taken from patent publication US20080085893A1, “MATRIX METALLOPROTEASE INHIBITORS” (priority 2006, published 2008).
